Outcome and B-score data for 25 compounds are collected here from PubChem BioAssay AID588676 (Johns Hopkins Ion Channel Center, 2011).

By UniProt entry, the sequences of proteins in these tests, tags left out.
UniProt Q96LB2, whole entry: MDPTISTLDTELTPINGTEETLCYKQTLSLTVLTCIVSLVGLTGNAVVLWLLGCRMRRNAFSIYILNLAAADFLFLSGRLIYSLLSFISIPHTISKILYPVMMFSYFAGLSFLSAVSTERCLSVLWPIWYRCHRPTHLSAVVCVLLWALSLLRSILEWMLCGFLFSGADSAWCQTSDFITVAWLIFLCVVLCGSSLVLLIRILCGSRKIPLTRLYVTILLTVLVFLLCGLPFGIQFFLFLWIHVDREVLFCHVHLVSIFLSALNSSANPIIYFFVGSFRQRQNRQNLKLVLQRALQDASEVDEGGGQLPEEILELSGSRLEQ

The entries are a selection whose mix differs from that of the whole data set. Some results for these compounds are left out of this collection, so the calls shown say nothing about other tests. The source made the active and inactive calls.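 The calls were made as follows: active = calcium-response B-score plate-corrected more than 3 library SD below zero, starting fluorescence within 5 deviations, no agonist response on first addition; inactive = the rest.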

This experiment concerns the target Mas-related G-protein coupled receptor member X1 (Homo sapiens) (UniProt Q96LB2). Briefly: blockade of BAM8-22-evoked MrgX1 calcium response – HEK293 cells, Fluo-4 calcium flux, primary screen (AID 588676).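 As to B-score: peak minus trough fluorescence over baseline after final BAM8-22 challenge near maximal dose.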 To be noted: Fluo-4, BAM8-22 antagonism, at 10 µM; hits give low values.
As for `CN(C)C1(CNC(=O)c2ccc(Br)cc2)CCCCC1`, the result was inactive.

For `COc1cc(C(=O)NCC2(N(C)C)CCCCC2)c([N+](=O)[O-])cc1OC`, the outcome was inactive.

Take `COc1ccc(Cl)cc1C(=O)NCC1(N(C)C)CCCCC1`: the result was inactive.

With `COc1cccc(C(=O)NCC2(N3CCCCC3)CCCCC2)c1`, the result was inactive.

Turning to `O=C(NCC1(N2CCCCC2)CCCCC1)c1cccc(Cl)c1`, the result was inactive.

Regarding `O=C(OC1CN2CCC1CC2)C(CO)(c1ccccc1)c1ccccc1` (stereo not given), the outcome was inactive.

Turning to `COc1ccc(Br)c(C(=O)NCC2(N3CCCCC3)CCCCC2)c1`, the outcome was inactive.

Consider `CN(C)c1cccc(C(=O)NCC2(N(C)C)CCCCC2)c1`, for which the outcome was inactive.

In the case of `CC(C)Oc1ccc(C(=O)NCC2(N(C)C)CCCCC2)cc1`, the outcome was inactive.

`O=C(NCC1(N2CCCCC2)CCCCC1)c1cc([N+](=O)[O-])ccc1Cl`: the outcome was inactive.

With `CN1[C@@H]2CC[C@H]1CC(OC(=O)C(O)(c1ccccc1)c1ccccc1)C2` (stereo not given in full), the result was inactive.

As for `CC(C)N1C(=O)CC2(CCN(CCOC(=O)C(O)(c3ccccc3)c3ccccc3)CC2)C1=O`, the outcome was inactive.

Turning to `COc1cc(SC)ccc1C(=O)NCC1(N(C)C)CCCCC1`, the outcome was inactive.

With `CCCCC(CC)C(=O)N1CCN(C/C=C/c2ccccc2)CC1` (stereo not given), the B-score is active: -4.88.

With `CCN(CC)CC(C)C(C)OC(=O)C(O)(c1ccccc1)c1ccccc1` (stereo not given), the outcome was inactive.

As for `Cc1ccc(C(=O)NCC2(N3CCCCC3)CCCCC2)cc1`, the result was inactive.

Turning to `CN(C)C1CCCC1OC(=O)C(O)(c1ccccc1)c1ccccc1` (stereo not given), the result was inactive.

Consider `CN(C)c1ccc(C(=O)NCC2(N(C)C)CCCCC2)cc1`, for which the result was inactive.

As for `Cc1ccccc1C(=O)NCC1(N2CCCCC2)CCCCC1`, the result was inactive.

Turning to `O=C(NCC1(N2CCCCC2)CCCCC1)c1cc(F)c(F)cc1Cl`, the result was inactive.

`C=CCN1CCN(CCOC(=O)C(O)(c2ccccc2)c2ccccc2)CC1`: the outcome was inactive.

`O=C(NCC1(N2CCCCC2)CCCCC1)c1cccc(Br)c1`: the outcome was inactive.

Consider `Cc1cc(C(=O)NCC2(N3CCCCC3)CCCCC2)ccc1[N+](=O)[O-]`, for which the result was inactive.

Regarding `CCN1CCCC(OC(=O)C2(O)c3ccccc3C=Cc3ccccc32)C1` (stereo not given), the result was inactive.

Consider `COc1ccc(C(=O)NCC2(N(C)C)CCCCC2)cc1`, for which the result was inactive.
